Consider 4 compounds from ChEMBL document CHEMBL5579863, “Galectin-8N-Selective 4-Halophenylphthalazinone-Galactals Double π-Stack in a Unique Pocket” (ACS Med Chem Lett, 2024).

Data set [1] can be described thus: Chemical stability in ammonium acetate buffer at pH 4 upto 100 uM and measured upto 120 hrs by LC-UV analysis. It counts as physicochemical. The note with it: pH 4, 120 h.
A short description of data set [2]: Chemical stability in ammonium acetate buffer at pH 9.5 upto 100 uM and measured upto 120 hrs by LC-UV analysis. In kind it is physicochemical. Conditions: pH 9.5, 120 h.

On to `Cc1ccc(-c2nn(CO[C@@H]3C=CO[C@H](CO)[C@@H]3O)c(=O)c3ccccc23)cc1`, for which the Stability entry in data set [1] and in data set [2] was “Stable” in each case.

Turning to `O=c1c2ccccc2c(-c2ccccc2)nn1CO[C@@H]1C=CO[C@H](CO)[C@@H]1O`, the Stability result in data set [1] and in data set [2] was “Stable” in each case.

With `O=c1c2ccccc2c(-c2ccc(Cl)c(Cl)c2)nn1CO[C@@H]1C=CO[C@H](CO)[C@@H]1O`, the Stability result in data set [1] and in data set [2] was “Stable” each time.

Take `O=c1c2ccccc2cnn1CO[C@@H]1C=CO[C@H](CO)[C@@H]1O`: the Stability result in data set [1] and in data set [2] was “Stable” throughout.
